# Molecular target: Flag-tagged ATG4B Y8C in the F349A/F388A background (human) (UniProt Q9Y4P1)
# Assay: co-IP; HEK293T co-transfected with the Flag-tagged protein and GFP-tagged LC3B or GABARAPL1 for 24 h; lysis in 50 mM Tris pH 7.4, 50 mM NaCl, 0.5% Nonidet P-40; anti-Flag gel at 4 °C overnight, washed with TBS three times; immunoblot
substance,measurement,value
GFP-tagged LC3B (microtubule-associated protein 1 light chain 3B) (from UniProt Q9GZQ8 1-120) (natural protein),"bound LC3B, percent of wild type (% of wild type)",37

# Reference: paper PMC8166871
